Test system: Mycobacterium tuberculosis H37Rv growth inhibition, no glycerol
Test: Mycobacterium tuberculosis H37Rv growth inhibition, no glycerol, confirmatory dose response (AID 504901)

## c1ccc(/N=C2\N=C(Nc3ccccn3)c3ccccc32)nc1
  IC90: 2.79 µM
Measured here: IC50 of growth inhibition
  IC50: 2.12 µM
